This is an account of results in patent publication US4885299A, “2-(2,3-dihydro-2-oxo-3-benzofuranyl)acetic acids antihypoxic and nootropic effects having” (ADIR Et Cie, priority 1987, dated 1989).

The test has as its system brain energy-rich compounds (ATP, ADP, AMP). The test can be described thus: Acute hypoxia in rats; protection of tissue energy-rich compounds in brain (ATP, energy content). The format is in vivo, Male Fischer 344 rats (Charles River). To be noted: 300 mg/kg I.P., 3% oxygen for 2 minutes. As for the experimental part: The compounds of the present invention were tested in respect of their capacity to prolong the survival of cerebral tissue during acute hypoxia in mice, or to maintain the level of tissue energy-rich compounds in rats subjected to a fall in the oxygen supply [Pharmacology of Cerebral Ischemia, p. 334-339 (1968) Elsevier Science Publishers B.V., J. Krieglstein ed.]. […] Forsch. Drug. Res. (1986), 36 II No. 9, p. 1314-1320].
Whereas the control rats breath a gaseous mixture containing 21% of oxygen and 79% of nitrogen, the rats subjected to hypoxia breath a mixture of 3% oxygen and 97% nitrogen for 2 minutes.
At the end of the hypoxic period, the animals are rapidly sacrificed by total immersion in liquid nitrogen. The frozen brain is removed and the energy-rich compounds (ATP, ADP, AMP) are extracted and assayed by the luciferin luminescence method.
The tissue energy content (EC) is calculated according to ATKINSON's formula: [formula]

The structures appear in SMILES notation.

On to `NC(=O)CN1CCCC1=O` [Piracetam, piracetam, reference compound], for which the “% inhibition of the effects of hypoxia, ATP” value stood at 3.9%.
